1 compound from patent publication US9045403B2, “Geranyl geranyl acetone (GGA) derivatives and compositions thereof” (Coyote Pharmaceuticals, Inc., priority 2012, dated 2015) can be followed below.

Series [1] can be described thus: Blood chemistry and hematology in Sod1 mutant and wild type mice. The note with it: CNS-102 12 mg/kg or Riluzole 8 mg/kg oral daily.
Series [2] concerns Sod1 mutant mice.

With `Nc1nc2ccc(OC(F)(F)F)cc2s1` [Riluzole], the ALBUMIN in series [1] was determined as 2.7 mg/dL. In series [1] (blood at P100), the “A/G RATIO” value stood at 1 and the ALBUMIN came to 2700 mg/dL. Moreover, the “survival (in words)” value in series [2] (SOD1 mice versus vehicle) is reported as “Longer survival”. Besides, in series [2] (SOD1 mice, CNS-102 12 mg/kg or riluzole 8 mg/kg daily oral gavage from P38, vehicle 125.0), the “Median Survival” value was 129.5 days.
